This assay relates to M-CSF dependent bone marrow macrophages (MDBMs). Briefly: In vitro osteoclast differentiation assay (TRAP activity). Conditions: MDBMs with hM-CSF and rhsRANKL for 4 days. The assay is classed as cell-based, mouse. The procedure:
To prepare macrophage colony-stimulating factor (M-CSF) dependent bone marrow macrophages (MDBMs), bone marrow cells were obtained from the femurs of male BALB/c mice (CLEA Japan) and adherent cells were cultured with human M-CSF (hM-CSF; 10000 U/mL) for 6 days. MDBMs were collected and cultured with hM-CSF (10000 U/mL) and recombinant human soluble RANKL (rhsRANKL)-GST (5 nM) for 4 days (25000 cells/well in a 96 well flat plate) for induction of differentiation into osteoclasts. Test compounds were then added to the culture media at the indicated concentration. TRAP activities were measured using the commercially available TRACP and ALP Assay Kit (TAKARA BIO INC).

Take `COc1cc2nccc(Oc3ccc(NC(=O)C4(C(=O)Nc5ccc(F)cc5)CC4)cc3)c2cc1OC` [Cabozantinib]: the “concentration that potently inhibited / markedly affected RANKL and M-CSF-induced mouse osteoclast formation” value stood at 1 µM.

Regarding `CCN(CC)CCNC(=O)c1c(C)[nH]c(/C=C2\C(=O)Nc3ccc(F)cc32)c1C` [Sunitinib], the “concentration that potently inhibited / markedly affected RANKL and M-CSF-induced mouse osteoclast formation” value is 0.1 µM.
